# scFv variants of Ab-14 (heavy chain) against a SARS-CoV-2 spike peptide

From the AlphaSeq antibody data of Li et al. 2023 (doi:10.1038/s41467-023-39022-2), copy in the FLAb collection.

All variants were tested on one target, the spike HR2 peptide PDVDLGDISGINAS (SARS-CoV-2).

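These sequences belong to a second round, designed from the earlier measurements on random variants of the parent. Their group label is 14H_En_HC (En: ensemble of fine-tuned language models; HC: hill climbing; a sequence that several methods proposed may carry one label only). The scFvs were displayed on barcoded MATa yeast, the peptide on MATalpha yeast. Pairs that bind mate more often; barcode pairs of the diploids are counted by sequencing. The ratio of observed to expected reads was calibrated, replicate by replicate, on BCL2-family standards whose Kd was known from biolayer interferometry. Each pool was mated in six replicate cultures.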

The variants keep the light chain, the linker and the frameworks of Ab-14 (scFv order VH, three GGGGS repeats, VL).
VH: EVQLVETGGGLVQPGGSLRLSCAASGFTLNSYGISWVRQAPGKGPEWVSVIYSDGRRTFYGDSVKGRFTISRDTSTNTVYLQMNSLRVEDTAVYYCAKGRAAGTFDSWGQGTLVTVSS
VL: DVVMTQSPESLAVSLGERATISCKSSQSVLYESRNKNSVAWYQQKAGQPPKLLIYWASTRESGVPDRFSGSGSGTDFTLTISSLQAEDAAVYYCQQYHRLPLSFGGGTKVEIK

Variants are written as CDR1, CDR2 and CDR3 of the heavy chain (limits as in the source). Parent: GFTLNSYGIS, VIYSDGRRTFYGDSVK, GRAAGTFDS.
Affinities are written as log10 Kd with Kd in nM; a lower number is a better binder.
"nd" means that the variant was in the library but no mating with the target was seen in that replicate; the authors take this as a sign of poor binding, and no number exists.
The parent sequence was in this pool as ten entries: three were never detected, three once, and four in most replicates, with averages from 0.34 to 2.37.

| CDR-H1 | CDR-H2 | CDR-H3 | replicates, log10 nM | signal with controls |
|---|---|---|---|---|
| GFDLDEYGIS | VIYADGMRTFYADSVK | GTNAGTFDA | -0.18 0.07 -0.16 -0.30 -0.17 -0.09 | 0 of 18 |
| GFDLDEYGIS | VIYADGQRTFYADSVK | GTNAGTFDA | -0.46 -0.59 -0.38 -0.91 -0.63 -0.15 | 1 of 18 (1.86) |
| GFDLNEYGIS | VIYADGVRTAYIDSVK | GEAAGTFDV | 0.14 0.60 0.57 0.63 0.31 0.58 | 0 of 18 |
| GFNLNEYGIS | VIYADGRRTFYADSVK | GEVAGTFDS | -0.91 -0.70 -1.04 -1.21 -1.12 -0.91 | 0 of 18 |
| GFDLNEYGIS | VIYADGIRTFYADSVK | GNIAGTFDS | -0.04 -0.51 -1.11 -0.71 -0.66 -0.12 | 0 of 18 |
| GFDLNEYGIS | VIYADGKRTFYSDSVK | GNAAGTFDV | 0.18 0.17 -0.76 -0.56 -0.64 -0.27 | 0 of 18 |
| GFDLNEYGIS | VIYADGRRTFYADSVK | GENAGTFMS | 1.19 0.61 1.54 0.67 0.94 1.20 | 0 of 18 |
| GFDLNEYGIS | VIYADGRRTFYSDKVK | GNTGGTFDI | 0.05 -0.29 -0.59 -0.74 -0.49 -0.13 | 1 of 18 (1.96) |
| GFNLEDYGIS | VIYADGKRTFYADSVK | GEVAGTFDV | -0.30 -0.37 -0.60 -0.70 -0.44 -0.41 | 1 of 18 (3.39) |
| GFDLNEYGIS | VIYADGQRTFYSDSVK | GNQAGTFDI | nd nd nd nd nd nd | 0 of 18 |
| GFQLDEYGIS | VIYADGRRTAYQDSVK | GEVAGTFDV | -0.25 -0.35 -0.35 -0.50 -0.48 -0.20 | 0 of 18 |
| GFNLNEYGIS | VIYADGRRTFYADSVK | GEHAGFFDI | nd nd nd nd nd 3.41 | 1 of 18 (3.00) |
| GFDLNEYGIS | VIYADGLRTYYADSVK | GQLAGTFDQ | -1.01 -1.11 -1.02 -0.95 -1.08 -0.56 | 1 of 18 (0.54) |
| GFDLNEYGIS | VIYADGRRTFYQDSVK | GTNGGTFDV | 0.71 0.39 -0.13 -0.09 0.82 0.30 | 1 of 18 (2.17) |
| GFDLNEYGIS | VIYADGKRTAYTDSVK | GHAAGTFDL | 0.13 nd -0.10 0.03 -0.13 0.45 | 0 of 18 |
| GFDLNEYGIS | VIYADGRRTFYADSVK | GEIAGTFSF | -0.17 -0.32 -0.56 -0.81 -0.57 -0.44 | 1 of 18 (1.98) |
| GFDLNEYGIS | VIYADGRRTAYSDSVK | GEIAGTFDE | -0.61 -0.30 -0.47 -0.69 -0.52 -0.52 | 0 of 18 |
| GFDLNEYGIS | VIYADGRRTAYIDSVK | GNAAGTFDL | -0.31 -0.44 -0.63 -0.68 -0.54 -0.24 | 1 of 18 (3.28) |
| GFDLDEYGIS | VIYADGMRTFYADSVK | GNIAGTFDS | -0.40 -0.51 -0.52 -0.49 -0.53 -0.26 | 0 of 18 |
| GFNLNEYGIS | VIYADGRRTFYADSVK | GEAAGTFDV | -0.06 -0.40 -0.62 -0.66 -0.41 -0.13 | 0 of 18 |
| GFDLEDYGIS | VIYADGRRTAYIDSVK | GEIAGTFDS | 0.09 0.06 0.27 -0.12 0.02 0.09 | 0 of 18 |
| GFNLNEYGIS | VIYADGQRTFYADSVK | GEIAGTFDV | -0.41 -0.42 -0.57 -0.74 -0.64 -0.42 | 1 of 18 (2.09) |
| GFDLNEYGIS | VIYADGKRTFYSDSVK | GAVAGTFDK | 0.27 0.13 0.12 -0.07 -0.02 0.02 | 1 of 18 (2.14) |
| GFDLNEYGIS | VIYADGRRTQYIDSVK | GEIAGTFDT | -0.35 -0.50 -1.07 -1.06 -0.34 0.15 | 0 of 18 |
| GFDLNEYGIS | VIYADGLRTSYADSVK | GQNAGTFDL | 0.21 -0.29 -0.46 -0.76 -0.30 0.06 | 0 of 18 |
| GFDLNEYGIS | VIYADGRRTFYADSVK | GNLAGTFDQ | -0.47 -0.12 0.31 -0.62 0.08 -0.27 | 0 of 18 |
| GFDLNEYGIS | VIYADGQRKFYADSVK | GNTAGTFDV | -0.64 -1.31 -0.72 -1.03 -0.90 -1.01 | 0 of 18 |
| GFDLNEYGIS | VIYADGKRTQYIDSVK | GNQAGTFDS | 0.97 0.26 0.47 0.24 -0.28 0.07 | 0 of 18 |
| GFDLNEYGIS | VIYADGRRTFYSDSVK | GEIAGTFDV | nd 1.53 0.59 0.21 0.61 1.11 | 0 of 18 |
| GFDLNEYGIS | VIYADGRRTAYADSVK | GNNAGTFDS | 0.28 0.22 0.35 0.12 -0.03 0.06 | 0 of 18 |
| GFDLNEYGIS | VIYADGRRTYYADSVK | GEIAGTFDQ | nd -1.33 1.27 -0.07 -1.81 -1.36 | 0 of 18 |
| GFDLDEYGIS | VIYADGRRTFYTDSVK | GQLAGTFDL | -0.06 -0.25 -0.36 -0.31 -0.45 -0.16 | 0 of 18 |
| GFDLEEYGIS | VIYADGRRTFYADSVK | GEAAGTFDV | -0.15 -0.47 -0.41 -0.46 -0.49 -0.14 | 0 of 18 |
| GFTLDEYGIS | VIYADGKRTFYADSVK | GEAAGTFDI | 0.49 0.29 -0.25 -0.18 -0.29 0.00 | 3 of 18 (2.16) |
| GFNLNEYGIS | VIYADGRRTQYIDSVK | GNVAGTFDS | 0.71 0.23 0.04 -0.01 -0.38 0.24 | 0 of 18 |
| GFDLNEYGIS | VIYADGRRTAYADSVK | GQLAGTFDT | -0.04 -0.25 -0.82 -0.63 -1.06 -0.37 | 0 of 18 |
| GFNLNEYGIS | VIYADGRRTFYADSVK | GEEAGTFDV | 0.87 0.83 1.09 0.21 0.64 1.78 | 0 of 18 |

In the paper, a design with two or fewer of six values counts as a poor binder.
As a blank, each scFv also met three strains without target: over all heavy chain designs, 1% of these pairings were detected, typically at 2.08 and seldom below 0.84. For each scFv, signals with the empty controls are counted beside the result, with their mean in brackets.
The range of this assay differs from that of the first round, and the authors advise against merging the two.